Experiments:
Homo sapiens [1] = species: Homo sapiens; experiment: Selectivity ratio of Ki for human recombinant adenosine A2B receptor to Ki for human recombinant adenosine A2A receptor
Homo sapiens [2] = species: Homo sapiens; experiment: Selectivity ratio of Ki for human recombinant adenosine A3 receptor to Ki for human recombinant adenosine A2A receptor

Ratio Ki (Homo sapiens [1]): 105
Ratio Ki (Homo sapiens [2]): 856
SMILES: Cn1c(-c2ccco2)nc2c(N)ncnc21
